# Binding of CDR-mutated scFvs to a peptide of the spike HR2 region

The measurements come from Engelhart et al. 2022 (doi:10.1038/s41597-022-01779-4) through the FLAb antibody collection.

Target: peptide PDVDLGDISGINAS, taken from heptad repeat 2 (HR2) of SARS-CoV-2 spike.

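The starting antibody came from a phage panning campaign against this peptide. AAYL51 was designed without a model: most single CDR substitutions and a random sample of double and triple ones. In AlphaSeq, yeast of one mating type display the scFv and yeast of the other type display the target. Binding brings cells together so that they mate, and sequencing counts the barcode pairs among the diploids. Scores were corrected for input abundance and mapped to Kd with protein pairs of known affinity run in the same pool. Each pool was mated in three replicate cultures.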

Parent: Ab-91, a human scFv built as VL, a (GGGGS)3 linker, VH. Only the CDRs of the heavy chain vary.
VL: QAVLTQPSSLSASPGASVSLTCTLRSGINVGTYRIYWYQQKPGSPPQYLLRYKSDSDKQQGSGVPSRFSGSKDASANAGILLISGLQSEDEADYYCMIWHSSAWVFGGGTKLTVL
VH: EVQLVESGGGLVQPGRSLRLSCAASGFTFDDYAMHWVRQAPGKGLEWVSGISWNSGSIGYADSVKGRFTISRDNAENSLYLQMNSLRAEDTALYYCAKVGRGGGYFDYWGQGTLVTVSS

Variants are written as CDR1, CDR2 and CDR3 of the heavy chain (limits as in the source). Parent: GFTFDDYAMH, GISWNSGSIGYADSVK, VGRGGGYFDY. All variants listed here change T28 of the VH, counted from its first residue. Values are log10 of the apparent Kd in nM; lower means stronger binding. Averages over replicates are reported, and they cover detected replicates only. An entry "no signal" has no value in the source: the pair was not observed among the diploids in any replicate. This suggests poor binding but is not conclusive. Empty control strains, which show no peptide, gave a signal in 21% of pairings with library AAYL51; the median was 4.54 and 95% of these signals were weaker than 3.26. No background was subtracted.

CDR-H1,CDR-H2,CDR-H3,"log10 Kd (nM), mean",detected
GFVFDDYAMH,GISWNSGSINYADSVL,VGRGGGYFDY,no signal,0/3
GHSFDDFAMH,GISWNSGSIGYADSVK,VGRGGGYFDY,2.96,3/3
HFIFDDYAMH,RISWNSGSIGYADSVK,VGRGGGYFDY,no signal,0/3
GFAFDDYAMH,GISVNSGSIGYADSVK,VGRVGGYFDY,3.27,1/3
GFWFDDYAMH,GISWNSGSIGYADSVT,VGRGGGYFDY,2.28,3/3
GFYFDDYAMH,GSSWNSGSIGCADSVK,VGRGGGYFDY,4.78,1/3
GFQFDDYAMH,GISWGSGSIGYADSVK,VGRGGLYFDY,no signal,0/3
GFIFDDYAMH,GISWNSMSIGYADSVK,VGRGGGGFDY,4.78,1/3
GFNFDDYAMH,GISWNSGSIGYADSVK,VGRGTGYFFY,no signal,0/3
GFRFDDYAMH,GISWNSGFIQYADSVK,VGRGGGYFDY,5.14,3/3
GFYFDDYAMH,GISWNSGSIGYADSVK,KGRGGGYFDY,no signal,0/3
GFATDDYAMH,GISWNSGSIGYADSVK,VGPGGGYFDY,2.73,3/3
GFHKDDYAMH,GISWNSGSIGYADSVK,VRRGGGYFDY,no signal,0/3
GFQFDDYAMH,GISWNSGSWGYADSVK,VGRGGGYFDN,2.60,3/3
GFLFDDYAMH,GISWNSGSIGYADSWK,VGRGGGYFDY,3.10,2/3
GFGFDDYTMH,GISCNSGSIGYADSVK,VGRGGGYFDY,4.87,1/3
GFKFMDYAMH,GISWNSGSIGYADSVK,VGAGGGYFDY,0.85,3/3
GFGFDDYAMH,GISWSSGSIGYADSVT,VGRGGGYFDY,4.90,1/3
GFWFDDYPMH,GISWESGSIGYADSVK,VGRGGGYFDY,4.80,3/3
GFIFDDYAMH,GISWNSGSDGYADSVK,VGRGCGYFDY,3.55,3/3
GFHFDDYAMI,GISWNSGSIGYADSVK,VGRGGGYFDY,5.21,2/3
GFRFDDYAMH,YISMNSGSIGYADSVK,VGRGGGYFDY,no signal,0/3
GFYFIDYAMH,GISFNSGSIGYADSVK,VGRGGGYFDY,3.21,2/3
GFFFDDYAMH,GISWNSGSIGYADSVK,VGDGSGYFDY,no signal,0/3
GFLFNDYAMH,SISWNSGSIGYADSVK,VGRGGGYFDY,no signal,0/3
GFGFDDYAMH,GISWNSGSIGYADSVK,VGDGGGYFQY,no signal,0/3
GFYFDDYAMH,GISWYSGSIGYADSVK,VGRGGGYFDY,5.26,2/3
GFIFDDYQIH,GISWNSGSIGYADSVK,VGRGGGYFDY,3.44,2/3
PFCFDDYAMH,GISWNSGSIGYADSVK,VGQGGGYFDY,4.00,2/3
GFSFDDYAMH,GISWNSGPIGYADSVK,VGRGGGYFDW,no signal,0/3
GFQFDDYAMH,TISANSGSIGYADSVK,VGRGGGYFDY,3.97,1/3
YFCFDIYAMH,GISWNSGSIGYADSVK,VGRGGGYFDY,4.04,2/3
GFSFDDYAMH,GESWNSGSIGYADSVK,EGRGGGYFDY,5.59,1/3
GFFFDDYAMH,GTSWNSGSIGYADSVT,VGRGGGYFDY,4.52,1/3
GFEFDDYAMY,GISWNSGSIGYADSVK,VGRGAGYFDY,no signal,0/3
GFHTDDYAMH,GISWNSGSIGYADSVW,VGRGGGYFDY,no signal,0/3
GFAFDDYAMH,GISWNENSIGYADSVK,VGRGGGYFDY,no signal,0/3
GFAFDDYAMH,GVSWNSGSIGYADSVK,VGRGGWYFDY,2.57,3/3
GFIQDDYAMH,GISWASGSIGYADSVK,VGRGGGYFDY,5.65,2/3
GESFDDYAMH,GISWNSGSIGYAASVK,VGRGGGYFDY,3.37,1/3
GFRFDDYAMH,GISWNSVSIGYADSVK,VGRGGGEFDY,4.75,2/3
GFMFDDYAMH,GIIWNSGSIGYEDSVK,VGRGGGYFDY,4.40,1/3
GFFFDEYAMH,GISWNSGSIGYASSVK,VGRGGGYFDY,2.78,3/3
GFIFDDYAMH,GISWNSISIGYADSVK,VGRGGGYFDY,4.06,1/3
GFMFDDYAMH,GISWNSGSIGYADSVK,VGRGGGYGDY,no signal,0/3
GFEFFDYAMH,GISWNSGSIGYADCVK,VGRGGGYFDY,2.32,3/3
GFMFDDYAMH,GISWCSGSIGYACSVK,VGRGGGYFDY,4.14,3/3
GFGFDDYAFH,GISWNSGSIGYADSVK,VGRGGGYFDY,4.13,1/3
GFHFDDYAMH,GISWNSGSIGYAMSVK,VGFGGGYFDY,1.84,1/3
GEKFDDYAMH,GISWNSGSIGYADSVK,VGRGGGYFDY,4.16,2/3
GFGFDFYAHH,GISWNSGSIGYADSVK,VGRGGGYFDY,5.02,1/3
GFHFDDYAMH,GISWNSGSIGYADAVK,VGRGHGYFDY,5.41,2/3
GFSFDDYAMH,GISWNSGSIGYADSVK,PGRGGGYFDY,no signal,0/3
NFLFDDYAMH,GISWNSGSIGYDDSVK,VGRGGGYFDY,5.46,3/3
GFGFDDYAMH,GASWNSGSIGYADSVQ,VGRGGGYFDY,4.85,1/3
GFDFDDPAMH,GISWNSFSIGYADSVK,VGRGGGYFDY,5.84,1/3
GFIFDDTAMH,GISWNSGSIGDADSVK,VGRGGGYFDY,4.95,1/3
GFPFDDYAMH,GIKWNSGSIGYAVSVK,VGRGGGYFDY,no signal,0/3
GFAFDDYAMH,GIKWNSGSIGYADSVK,VGRGGGQFDY,3.49,1/3
GFKFDDYAMH,GILWNSGSIGYADSVK,LGRGGGYFDY,4.96,3/3
GFGFDDYAMH,EISWNSGSIGYADSVK,VGRGGGYFDY,5.27,2/3
GFQVDDYAMH,GISWNSGSIGYADSVK,VGRGEGYFDY,5.14,2/3
GFFFDDYAMH,GYSWNSGSIGYADSRK,VGRGGGYFDY,5.04,1/3
GFEIDDYAMH,GRSWNSGSIGYADSVK,VGRGGGYFDY,4.63,1/3
GFMFDDYAMH,GISWNSGSIGYADSVD,VGIGGGYFDY,1.11,3/3
GFKFDDSAMH,GISWNSGSIGYADSVK,VARGGGYFDY,3.68,3/3
GFMFDDYAMH,GISWNSGSIGYADSVK,VGRGGGYFDY,1.46,3/3
GFEFDDYAMH,GISYNSGSIGYADSVK,VGGGGGYFDY,2.13,3/3
GFHFDDYAMH,GISWNSGSIGYADSKK,VGRGGGYFDY,4.47,1/3
GFEFDDYAMH,GISWNSGSIGVADSVK,VGRGGGYFDY,1.39,3/3
GFHFDDYAMH,GISWNSGSIGYADSVK,VGRGGGYFDA,0.44,3/3

The last 8 entries again:

CDR-H1,CDR-H2,CDR-H3,"log10 Kd (nM), mean",detected
GFEIDDYAMH,GRSWNSGSIGYADSVK,VGRGGGYFDY,4.63,1/3
GFMFDDYAMH,GISWNSGSIGYADSVD,VGIGGGYFDY,1.11,3/3
GFKFDDSAMH,GISWNSGSIGYADSVK,VARGGGYFDY,3.68,3/3
GFMFDDYAMH,GISWNSGSIGYADSVK,VGRGGGYFDY,1.46,3/3
GFEFDDYAMH,GISYNSGSIGYADSVK,VGGGGGYFDY,2.13,3/3
GFHFDDYAMH,GISWNSGSIGYADSKK,VGRGGGYFDY,4.47,1/3
GFEFDDYAMH,GISWNSGSIGVADSVK,VGRGGGYFDY,1.39,3/3
GFHFDDYAMH,GISWNSGSIGYADSVK,VGRGGGYFDA,0.44,3/3